The assay deals with T1, calcium antagonism (thoracic aorta spiral specimen, contraction by calcium) (Cavia porcellus, UniProt O35505).
T1 construct: from tissue; host or cells: thoracic aorta spiral strip of male Hartley guinea pig
The experiment in a line: Calcium antagonistic effect (contraction response by calcium of spiral thoracic aorta specimen, Magnus method). The arrangement: species or system Hartly male giunea pig. Conditions: guinea pig thoracic aorta, read-out: Calcium antagonistic effect, pA2 value (converted). The method, then: [Calcium antagonistic effect]
Using a spiral blood vessel specimen taken from a thoracic aorta of Hartly male giunea pig weighed 400 to 600 g, a contraction response by calcium was measured as a dose-response curve according to Magnus method and the antagonistic activity for each test compound was indicated as above-mentioned pA2 value.

By UniProt entry, the sequences of proteins in these tests, tags left out.
UniProt O35505, whole entry: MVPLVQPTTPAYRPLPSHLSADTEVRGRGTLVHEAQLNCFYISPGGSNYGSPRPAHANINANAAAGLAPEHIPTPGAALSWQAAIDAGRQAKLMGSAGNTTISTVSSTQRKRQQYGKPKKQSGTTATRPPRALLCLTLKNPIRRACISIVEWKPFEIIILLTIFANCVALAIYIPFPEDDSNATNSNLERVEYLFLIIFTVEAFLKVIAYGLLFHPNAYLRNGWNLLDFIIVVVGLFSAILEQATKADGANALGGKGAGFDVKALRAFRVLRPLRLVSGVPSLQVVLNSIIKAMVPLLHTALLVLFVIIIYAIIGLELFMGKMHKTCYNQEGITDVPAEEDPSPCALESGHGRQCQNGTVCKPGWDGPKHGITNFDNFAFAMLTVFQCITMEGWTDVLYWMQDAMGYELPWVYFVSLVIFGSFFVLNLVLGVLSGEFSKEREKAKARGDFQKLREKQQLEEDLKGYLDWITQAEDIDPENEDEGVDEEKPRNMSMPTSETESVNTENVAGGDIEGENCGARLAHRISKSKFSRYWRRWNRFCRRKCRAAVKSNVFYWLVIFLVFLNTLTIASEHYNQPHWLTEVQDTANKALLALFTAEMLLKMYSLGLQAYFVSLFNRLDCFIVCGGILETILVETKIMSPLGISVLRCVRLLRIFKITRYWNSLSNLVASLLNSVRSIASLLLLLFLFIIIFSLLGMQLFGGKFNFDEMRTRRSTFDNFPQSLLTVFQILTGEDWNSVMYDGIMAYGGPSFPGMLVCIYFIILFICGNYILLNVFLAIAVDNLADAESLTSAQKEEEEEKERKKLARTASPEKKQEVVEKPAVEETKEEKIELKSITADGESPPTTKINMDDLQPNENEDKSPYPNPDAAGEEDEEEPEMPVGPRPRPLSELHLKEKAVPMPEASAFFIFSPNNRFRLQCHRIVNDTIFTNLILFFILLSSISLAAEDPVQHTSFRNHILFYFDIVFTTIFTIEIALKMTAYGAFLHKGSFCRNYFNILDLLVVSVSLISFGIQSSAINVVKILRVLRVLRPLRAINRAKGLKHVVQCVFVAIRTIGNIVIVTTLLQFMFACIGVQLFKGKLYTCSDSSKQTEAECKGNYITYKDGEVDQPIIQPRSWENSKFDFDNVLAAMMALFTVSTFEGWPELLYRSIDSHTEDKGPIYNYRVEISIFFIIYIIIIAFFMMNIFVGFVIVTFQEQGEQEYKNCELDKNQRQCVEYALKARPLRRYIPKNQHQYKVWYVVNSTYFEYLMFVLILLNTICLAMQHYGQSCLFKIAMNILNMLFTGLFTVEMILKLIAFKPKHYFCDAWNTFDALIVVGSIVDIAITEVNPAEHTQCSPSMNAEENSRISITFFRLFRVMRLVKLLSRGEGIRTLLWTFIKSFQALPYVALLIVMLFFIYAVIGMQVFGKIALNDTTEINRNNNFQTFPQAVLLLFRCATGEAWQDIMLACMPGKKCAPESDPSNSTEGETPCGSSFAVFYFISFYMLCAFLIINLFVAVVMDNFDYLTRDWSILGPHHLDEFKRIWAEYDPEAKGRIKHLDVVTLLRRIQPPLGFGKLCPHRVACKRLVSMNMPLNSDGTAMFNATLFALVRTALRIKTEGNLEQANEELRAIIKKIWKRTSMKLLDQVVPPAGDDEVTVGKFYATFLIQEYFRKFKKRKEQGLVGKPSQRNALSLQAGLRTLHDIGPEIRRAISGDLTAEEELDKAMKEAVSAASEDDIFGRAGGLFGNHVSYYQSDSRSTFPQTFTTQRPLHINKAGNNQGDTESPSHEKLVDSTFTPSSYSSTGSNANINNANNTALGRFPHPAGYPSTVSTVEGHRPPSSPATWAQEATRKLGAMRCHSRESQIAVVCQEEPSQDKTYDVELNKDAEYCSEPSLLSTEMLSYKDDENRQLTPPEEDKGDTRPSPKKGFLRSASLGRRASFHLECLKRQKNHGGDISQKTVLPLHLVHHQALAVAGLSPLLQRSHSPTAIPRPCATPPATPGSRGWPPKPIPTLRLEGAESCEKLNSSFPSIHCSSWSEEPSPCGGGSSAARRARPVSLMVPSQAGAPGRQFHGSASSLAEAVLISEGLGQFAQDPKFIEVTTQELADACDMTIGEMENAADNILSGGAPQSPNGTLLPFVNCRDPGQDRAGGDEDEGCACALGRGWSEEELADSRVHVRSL

Turning to `COc1ccc([C@@H]2Sc3ccccc3N(CCN(C)C)C(=O)[C@@H]2OC(C)=O)cc1` [Diltiazem, reference compound], the Kb was 91.2 nM.

(Values after patent US4652566A, “Benzofuran derivatives, processes for preparing the same and antihypertensive agents containing the same” (Kaken Pharmaceutical Co., Ltd., priority 1984, dated 1987).)
